Values of other authors in patent US11053300B2, “Membrane span-kinase fusion protein and the uses thereof” (VIB VZW, priority 2012, dated 2021).

Biological target: AGTR1 (Homo sapiens, UniProt P30556)
Settings: reported, Kakuta et al., 2005; cited from earlier work

CCCc1nc2c(C)cc(-c3nc4ccccc4n3C)cc2n1Cc1ccc(-c2ccccc2C(=O)O)cc1 [telmisartan]
binding affinity towards AGTR1, telmisartan versus losartan: higher binding affinity
